Biological target: DQB1*03:02
Experiment: Peptide binding to HLA-DQ allele, competition assay
Parameters: species or system human

IC50: 0.642 µM
Compound: CC[C@H](C)[C@H](NC(=O)[C@H](Cc1ccc(O)cc1)NC(=O)[C@H](CCC(N)=O)NC(=O)[C@H](CC(=O)O)NC(=O)[C@H](Cc1ccccc1)NC(=O)[C@H](CCC(N)=O)NC(=O)[C@@H](NC(=O)[C@H](CCSC)NC(=O)[C@H](Cc1ccc(O)cc1)NC(=O)[C@@H](NC(=O)[C@H](CC(C)C)NC(=O)[C@H](CCC(N)=O)NC(=O)[C@H](CO)NC(=O)[C@@H](N)CC(C)C)[C@@H](C)O)[C@@H](C)CC)C(=O)O [Peptide 3563.0012]
